## AlphaSeq binding of Ab-91 heavy chain variants to a spike HR2 peptide

Data: MIT Lincoln Laboratory AlphaSeq set, Engelhart et al. 2022, doi:10.1038/s41597-022-01779-4, as distributed in FLAb.

The target is the same throughout: PDVDLGDISGINAS, from the HR2 region of SARS-CoV-2 spike.

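In library AAYL51, one, two or three CDR residues were substituted; doubles and triples were drawn at random. Affinity was read by AlphaSeq, a pooled yeast mating assay with surface-displayed partners. The frequency of each diploid, read from paired DNA barcodes, reflects how well the two displayed proteins bind. Each replicate has its own calibration line, from reference interactions of the BCL2 family. Each pool was mated in three replicate cultures.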

The variants keep the light chain, the linker and the frameworks of Ab-91 (scFv order VL, three GGGGS repeats, VH).
VL: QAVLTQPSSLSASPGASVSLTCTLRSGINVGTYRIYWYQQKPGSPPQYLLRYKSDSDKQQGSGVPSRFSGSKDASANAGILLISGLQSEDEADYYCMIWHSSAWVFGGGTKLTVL
VH: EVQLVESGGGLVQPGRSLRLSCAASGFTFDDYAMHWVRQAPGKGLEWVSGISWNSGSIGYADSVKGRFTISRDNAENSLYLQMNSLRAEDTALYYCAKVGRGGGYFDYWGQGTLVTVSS

Substitutions are numbered in sequence along the VH above, starting at 1 (not Kabat).
This list gathers variants with a substitution at M34 (VH, numbered from residue 1).
Values are apparent Kd, the geometric mean of the replicates that gave a signal; lower means stronger binding.
An entry "no signal" has no value in the source: the pair was not observed among the diploids in any replicate. This suggests poor binding but is not conclusive.
As a blank, each scFv also met three strains without target: over library AAYL51, 21% of these pairings were detected, typically at 34 µM and seldom below 1.8 µM. For each scFv, signals with the empty controls are counted beside the result.
For reference, the parent read 72 nM as the reference entry and 7.5 nM as a member of this library.

For M34S+W53H+I58F, the assay gave no signal (0 of 3 replicates; controls 1 of 9). The variant T28W+M34Q+R101Y showed 250 µM (2 of 3 replicates; controls 6 of 9). The variant M34Y+S52D+Y105G showed 65 µM (1 of 3 replicates; controls 0 of 9). The variant M34E+H35D+N54A gave 3.4 µM (2 of 3 replicates; controls 1 of 9). The variant F29P+M34V+G59A gave no signal (0 of 3 replicates; controls 0 of 9). With T28S+M34C+W53N the result was 170 µM (1 of 3 replicates; controls 1 of 9). For M34Q+W53F+F106N, the assay gave 10 µM (1 of 3 replicates; controls 0 of 9). For M34A+W53T+V64D, the assay gave 27 µM (2 of 3 replicates; controls 2 of 9). For M34E+G50Y+S63C, the assay gave no signal (0 of 3 replicates; controls 2 of 9).

With M34R+N54G+G102R the result was no signal (0 of 3 replicates; controls 0 of 9). For D30G+M34I+R101E, the assay gave 70 µM (1 of 3 replicates; controls 8 of 9). The variant Y32M+M34C+G104W showed 95 µM (1 of 3 replicates; controls 4 of 9). With A33Y+M34C+I51Y the result was 1.7 mM (2 of 3 replicates; controls 6 of 9). With M34W+W53N the result was 6.4 µM (2 of 3 replicates; controls 2 of 9). For F29C+M34K+S55F, the assay gave 210 µM (2 of 3 replicates; controls 3 of 9). The variant M34I gave no signal (0 of 3 replicates; controls 0 of 9). The variant M34E+G56E+G59C showed no signal (0 of 3 replicates; controls 1 of 9). With M34K+A61Y+Y105D the result was no signal (0 of 3 replicates; controls 1 of 9).

The variant M34D+I58T+S63I gave no signal (0 of 3 replicates; controls 0 of 9). For G26A+M34K+G104R, the assay gave no signal (0 of 3 replicates; controls 0 of 9). The variant D30K+M34C+W53D showed 21 µM (2 of 3 replicates; controls 1 of 9). The variant A33I+M34E+D62G gave no signal (0 of 3 replicates; controls 2 of 9). The variant M34I+W53G+Y108D showed 170 nM (3 of 3 replicates; controls 0 of 9). With M34D the result was no signal (0 of 3 replicates; controls 0 of 9). For D31G+M34D+D62A, the assay gave no signal (0 of 3 replicates; controls 1 of 9). The variant D30Q+D31V+M34N gave 4.3 µM (1 of 3 replicates; controls 0 of 9). The variant F29E+M34A gave 340 µM (2 of 3 replicates; controls 5 of 9).

The variant M34G+D62V+S63R gave no signal (0 of 3 replicates; controls 0 of 9). For Y32H+M34N+G56D, the assay gave no signal (0 of 3 replicates; controls 0 of 9). The variant M34K+S55I+G102E gave no signal (0 of 3 replicates; controls 2 of 9). The variant M34L+W53Q+G59P gave 9.3 µM (1 of 3 replicates; controls 5 of 9). For M34K+D62V, the assay gave no signal (0 of 3 replicates; controls 1 of 9). For Y32R+M34H+H35G, the assay gave no signal (0 of 3 replicates; controls 3 of 9). For M34W+Y60P+D62W, the assay gave no signal (0 of 3 replicates; controls 2 of 9). The variant M34F+W53P+Y108P gave 170 nM (3 of 3 replicates; controls 5 of 9). The variant T28L+M34W+I51Q gave 100 µM (2 of 3 replicates; controls 2 of 9).

The variant M34F+H35F+G50S showed 9.4 µM (1 of 3 replicates; controls 0 of 9). The variant M34S+Y60T+G102N showed 52 µM (3 of 3 replicates; controls 1 of 9). The variant M34I+G102A showed 140 µM (3 of 3 replicates; controls 2 of 9). With M34G+S55K the result was 2.0 µM (1 of 3 replicates; controls 2 of 9). For M34I+I51A+S55Q, the assay gave 11 µM (2 of 3 replicates; controls 2 of 9). The variant M34G+I51N+N54Y showed no signal (0 of 3 replicates; controls 0 of 9). With M34A+H35T+G104L the result was no signal (0 of 3 replicates; controls 2 of 9). The variant M34K+G100I+F106G showed 93 µM (1 of 3 replicates; controls 3 of 9). The variant G26Y+M34P+S57E gave 98 µM (1 of 3 replicates; controls 5 of 9).

The variant D31G+M34S+G103Q showed 5.1 µM (1 of 3 replicates; controls 2 of 9).

A selection of 3 entries from above:

changes	Kd (apparent)	seen in	control signals
M34I+W53G+Y108D	170 nM	3 of 3	0 of 9
G26Y+M34P+S57E	98 µM	1 of 3	5 of 9
M34G+D62V+S63R	no signal	0 of 3	0 of 9